# AlphaSeq binding of Ab-14 light chain variants to a spike HR2 peptide

Data: MIT Lincoln Laboratory AlphaSeq set, Engelhart et al. 2022, doi:10.1038/s41597-022-01779-4, as distributed in FLAb.

Target: peptide PDVDLGDISGINAS, taken from heptad repeat 2 (HR2) of SARS-CoV-2 spike.

Parent: Ab-14, a human scFv built as VH, three GGGGS repeats, VL. Only the CDRs of the light chain vary.
VH: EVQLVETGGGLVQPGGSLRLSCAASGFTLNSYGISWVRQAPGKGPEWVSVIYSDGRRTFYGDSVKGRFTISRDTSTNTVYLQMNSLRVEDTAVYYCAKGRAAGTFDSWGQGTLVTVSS
VL: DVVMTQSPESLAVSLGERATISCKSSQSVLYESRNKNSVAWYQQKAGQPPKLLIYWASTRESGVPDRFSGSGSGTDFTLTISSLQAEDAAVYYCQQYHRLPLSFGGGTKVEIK

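Variants in AAYL50 differ from the parent at up to three CDR positions; double and triple changes were sampled at random. Affinity was read by AlphaSeq, a pooled yeast mating assay with surface-displayed partners. After mating in shaken culture at 30 °C for 16 h, diploids were selected and their barcode pairs sequenced. A regression on co-assayed BCL2-family reference pairs converts the normalised counts of each replicate to an apparent Kd. Mating was done three times.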

The parent's light chain CDRs are KSSQSVLYESRNKNSVA, WASTRES, QQYHRLPLS; each variant's own CDRs replace them letter for letter. This list gathers variants with a substitution at R34 (VL, numbered from residue 1). Kd is apparent (estimated from mating counts) and averaged on the log scale over replicates with a signal. Smaller is tighter. A pair that was not seen in any replicate is written "nd"; this usually means weak binding, but a binder can also be missed. Empty control strains, which show no peptide, gave a signal in 18% of pairings with library AAYL50; the median was 15 µM and 95% of these signals were weaker than 970 nM. No background was subtracted.

For KSSQSVLYESFNKNSVA / WASTRES / KLYHRLPLS, the assay gave nd (0 of 3 replicates).
For KSSQYVLYESWNKLSVA / WASTRES / QQYHRLPLS, the assay gave 2.3 µM (1 of 3 replicates).
For KSSQSVLYESKNKNSVA / WASTRES / QQYHRLPLS, the assay gave 18 nM (3 of 3 replicates).
For PSSQSVLYESFNVNSVA / WASTRES / QQYHRLPLS, the assay gave 2.4 µM (1 of 3 replicates).
For KSSQSVLYESDNKNSVV / WASTRES / QQYHRLPKS, the assay gave 390 µM (1 of 3 replicates).
For KSSQSVLYESCNKNSVA / WASYRES / QQYHRLPGS, the assay gave 97 µM (1 of 3 replicates).
For KSSQSVNYESFNKASVA / WASTRES / QQYHRLPLS, the assay gave 54 nM (3 of 3 replicates).
For KSSQSVLYESVNKKSVA / WAPTRES / QQYHRLPLS, the assay gave 390 µM (2 of 3 replicates).
For KSSQSVLYESANKNSKA / WASTRES / QQYERLPLS, the assay gave 44 µM (2 of 3 replicates).
For KSSQSVLYESNYKNSVA / WASTRRS / QQYHRLPLS, the assay gave 13 nM (3 of 3 replicates).
For KSSQSVLYESYNKNSVA / WASTRES / QQYHRLPLW, the assay gave 71 nM (3 of 3 replicates).
For KSSQSVLYESENKNSVA / WASTREF / QQYHRLPLS, the assay gave 3.2 nM (3 of 3 replicates).
For KSSQSVLYESCNKNSKA / WASTRIS / QQYHRLPLS, the assay gave 9.6 µM (3 of 3 replicates).
For KSSQFVLYESDNKNSVA / WMSTRES / QQYHRLPLS, the assay gave 23 nM (3 of 3 replicates).
For KSSQSVLYESPNKNSVA / WASDRES / QQYHCLPLS, the assay gave 2.2 µM (1 of 3 replicates).
For KSSQSVLYESHNKVSVA / WAHTRES / QQYHRLPLS, the assay gave nd (0 of 3 replicates).
For KSSQSVLYESCNKNSVA / CASTRES / QQYHRLPRS, the assay gave nd (0 of 3 replicates).
For KSSESVLYESDNKNSVA / WASTRES / QWYHRLPLS, the assay gave 16 µM (3 of 3 replicates).
For KSMQSVLYESKNKNSVA / FASTRES / QQYHRLPLS, the assay gave 99 nM (1 of 3 replicates).
For KSSQSVLYESINKNSVA / WASTRES / QQPHRLPLS, the assay gave nd (0 of 3 replicates).
For KSNQSVLYESTNKNSVA / WASTGES / QQYHRLPLS, the assay gave 1.7 µM (3 of 3 replicates).
For KSSQSVLYESPNKNSVA / IASTRES / QQYARLPLS, the assay gave 570 nM (3 of 3 replicates).
For KSSQSVLYESYNKNSVA / WASTRES / QQYHRLPLS, the assay gave nd (0 of 3 replicates).
For DSSQSVLYESCNKNSVK / WASTRES / QQYHRLPLS, the assay gave nd (0 of 3 replicates).
For KSKQSVLYESINKNSVA / WNSTRES / QQYHRLPLS, the assay gave nd (0 of 3 replicates).
For KSSQSVLYGSPNKNSVA / WASTRES / QQIHRLPLS, the assay gave 120 µM (3 of 3 replicates).
For KSSQSVLYESYNKNVVN / WASTRES / QQYHRLPLS, the assay gave nd (0 of 3 replicates).
For RSSQSVLYESGNKNSVA / WASTYES / QQYHRLPLS, the assay gave 7.2 µM (1 of 3 replicates).
For KSSQSVLYESCNANSVA / WASTRES / QQYHRLELS, the assay gave 37 µM (2 of 3 replicates).
For KSSQSVLYESPTKNSVA / WASTRES / QMYHRLPLS, the assay gave 45 nM (3 of 3 replicates).
For KSSQSVLYFSTNKNSVA / RASTRES / QQYHRLPLS, the assay gave 37 nM (3 of 3 replicates).

The opening 2 entries, copied out:

CDR-L1,CDR-L2,CDR-L3,apparent Kd,seen in
KSSQSVLYESFNKNSVA,WASTRES,KLYHRLPLS,nd,0/3
KSSQYVLYESWNKLSVA,WASTRES,QQYHRLPLS,2.3 µM,1/3